According to patent US11572353B2, “Alkynyl-substituted heterocyclic compound, preparation method therefor and medical use thereof” (BEIJING INNOCARE PHARMA TECH CO., LTD., priority 2016, dated 2023):

How the values were obtained:
Format in all cases: cell-based
[1] = tested on: RT4 bladder cancer cell line; experiment: Inhibition on the proliferation of RT4 cells (luminescent cell viability assay); conditions: Homo sapiens, RT-4, 72 hours
Experimental: (§1) CellTilter-Glo reagent (Promega, Cat. No. G7572) consists of CTG lyophilized powder and CTG buffer. Before use, the lyophilized powder needs to be dissolved in the buffer.
(§2) The compound was diluted with DMSO (Sigma, Cat. No. D5879) to 5 mM, then serially diluted 4 times with DMSO to a minimum concentration of 0.31 μM, and each concentration point was further diluted 50 times with a DMEM medium free of FBS (ThermoFisher, Cat. No. 11995073). If the compound IC50 value was very low, the initial concentration of the compound could be lowered. […]
(§3) After overnight incubation, 3 μL of DMEM diluted compound was added to each well, which was then gently centrifuged to mix well, and then the 384-well plate was placed in a 37° C., 5% CO2 incubator to continue the culture, and after 72 hours, the plate was taken out and allowed to stand at room temperature for 30 minutes, next added 15 μL of CTG reagent per well, which was warmed up to room temperature, the plate was shaken gently on a shaker for 3 minutes to ensure sufficient cell lysis, allowed to stand 10 minutes to stabilize the luminescence signal, and then read the luminescence signal with EnVision (Perkin Elmer). […]
(§4) The compound IC50 value was calculated from 8 concentration points using XLfit (ID Business Solutions Ltd., UK) software by the following formula: Y=Bottom+(Top−Bottom)/(1+10^((log IC50−X)*slope factor)) […]

Hep3B hepatoma cell line = experiment: Inhibition on the proliferation of Hep3B cells (luminescent cell viability assay); conditions: Homo sapiens, 72 hours
Experimental: The effect of the compounds of the present invention on cell proliferation of Hep3B hepatoma cell line was assessed using a luminescent cell viability assay (Table 2).
as §1, §2, §3

[2] = tested on: SNU-16 gastric cancer cell line; experiment: Inhibition on the proliferation of SNU-16 cells (luminescent cell viability assay); conditions: Homo sapiens, 72 hours
Experimental: as §1, §2, §3, §4

`C=CC(=O)N1CC[C@H](n2nc(C#Cc3cc(OC)cc(OC)c3)c(C(N)=O)c2NC2CCN(C)CC2)C1` [Compound 34, (S)-1-(1-acryloylpyrrolidin-3-yl)-3-((3,5-dimethoxyphenyl)ethynyl)-5-((1-methylpiperidin-4-yl)amino)-1H-pyrazole-4-carboxamide] gave an IC50 [1] of less than 10 nM, an IC50 (Hep3B hepatoma cell line) of 10 to 100 nM and an IC50 [2] of less than 10 nM.
